## Cyclic peptide permeability, from CycPeptMPDB

Values of Townsend et al. 2020, doi:10.26434/chemrxiv.13335941.v1, as listed in CycPeptMPDB.

PAMPA measures passive passage through an artificial lipid membrane.
Permeability is in 10^-6 cm/s, converted from the database's log10 values; higher is more permeable.

{"smiles": "CC(C)C[C@@H]1C(=O)N[C@H](CC(C)C)C(=O)N2CCC[C@@H]2C(=O)N(Cc2ccccc2)CC(=O)N[C@@H](Cc2ccccc2)C(=O)N2CCC[C@@H]2C(=O)N(C)[C@@H](C)C(=O)N1C", "PAMPA (10^-6 cm/s)": "1.9"}
{"smiles": "CC(C)C[C@@H]1NC(=O)[C@H]2CCCN2C(=O)[C@H](CC(C)C)N(C)C(=O)[C@H](CC(C)C)NC(=O)[C@H](C)N(C)C(=O)[C@H]2CCCN2C(=O)[C@H](Cc2ccccc2)NC1=O", "PAMPA (10^-6 cm/s)": "1.9"}
{"smiles": "CC(C)C[C@@H]1NC(=O)[C@@H]2CCCN2C(=O)[C@@H](CC(C)C)N(C)C(=O)[C@@H](CC(C)C)NC(=O)C[C@H](Cc2ccccc2)NC(=O)[C@@H]2CCCN2C(=O)[C@H](Cc2ccccc2)NC1=O", "PAMPA (10^-6 cm/s)": "4.1"}
{"smiles": "CC(C)C[C@@H]1C(=O)N(C)[C@@H](CC(C)C)C(=O)N2CCC[C@@H]2C(=O)N(C)[C@@H](CC(C)C)C(=O)N[C@@H](Cc2ccccc2)C(=O)N2CCC[C@H]2C(=O)N(C)[C@@H](C)C(=O)N1C", "PAMPA (10^-6 cm/s)": "3.5"}
{"smiles": "CC(C)C[C@@H]1NC(=O)[C@H](CC(C)C)N(C)C(=O)[C@@H](C)NC(=O)[C@@H]2CCCN2C(=O)[C@H](Cc2ccccc2)NC(=O)CN(Cc2ccccc2)C(=O)[C@@H]2CCCN2C1=O", "PAMPA (10^-6 cm/s)": "1.3"}
{"smiles": "CCCN1CC(=O)N[C@@H](CC(C)C)C(=O)N(Cc2ccccc2)CC(=O)N2CCC[C@H]2C(=O)N[C@H](CC(C)C)C(=O)N[C@@H](Cc2ccccc2)C1=O", "PAMPA (10^-6 cm/s)": "2.2"}
{"smiles": "CC(C)C[C@@H]1NC(=O)[C@@H](C)N(C)C(=O)[C@H](Cc2ccccc2)NC(=O)[C@@H](CC(C)C)NC(=O)[C@@H]2CCCN2C(=O)[C@H](CC(C)C)NC1=O", "PAMPA (10^-6 cm/s)": "0.44"}
{"smiles": "CCCN1CC(=O)N[C@@H](CC(C)C)C(=O)N(C)[C@@H](CC(C)C)C(=O)N2CCC[C@@H]2C(=O)N[C@H](CC(C)C)C(=O)N[C@@H](Cc2ccccc2)C(=O)N2CCC[C@@H]2C1=O", "PAMPA (10^-6 cm/s)": "3.1"}
{"smiles": "CC(C)C[C@H]1NC(=O)[C@@H](C)N(C)C(=O)[C@H](Cc2ccccc2)NC(=O)[C@@H](CC(C)C)NC(=O)[C@H]2CCCN2C(=O)[C@@H](CC(C)C)NC1=O", "PAMPA (10^-6 cm/s)": "5.9"}
{"smiles": "CC(C)C[C@@H]1NC(=O)C[C@H](Cc2ccccc2)NC(=O)[C@H](Cc2ccccc2)NC(=O)[C@H](CC(C)C)N(C)C(=O)[C@H]2CCCN2C(=O)[C@H](CC(C)C)NC1=O", "PAMPA (10^-6 cm/s)": "4.1"}
{"smiles": "CC(C)C[C@@H]1NC(=O)[C@H](C)NC(=O)[C@H](Cc2ccccc2)NC(=O)CN(Cc2ccccc2)C(=O)[C@H]2CCCN2C(=O)[C@H](CC(C)C)NC1=O", "PAMPA (10^-6 cm/s)": "1.3"}
{"smiles": "CCCN1CC(=O)N[C@@H](CC(C)C)C(=O)N(C)[C@@H](CC(C)C)C(=O)N2CCC[C@H]2C(=O)N[C@H](CC(C)C)C(=O)N[C@@H](Cc2ccccc2)C(=O)N2CCC[C@H]2C1=O", "PAMPA (10^-6 cm/s)": "0.72"}
{"smiles": "CC(C)C[C@@H]1NC(=O)[C@H]2CCCN2C(=O)[C@H](CC(C)C)NC(=O)[C@@H](CC(C)C)N(C)C(=O)[C@@H](C)NC(=O)[C@H](Cc2ccccc2)NC1=O", "PAMPA (10^-6 cm/s)": "3.8"}
{"smiles": "CC(C)C[C@H]1NC(=O)[C@@H]2CCCN2C(=O)C[C@H](Cc2ccccc2)NC(=O)CN(Cc2ccccc2)C(=O)C[C@H](Cc2ccccc2)NC(=O)[C@@H]2CCCN2C(=O)[C@H](Cc2ccccc2)NC1=O", "PAMPA (10^-6 cm/s)": "0.98"}
{"smiles": "CCCN1CC(=O)N[C@@H](CC(C)C)C(=O)N(C)[C@H](CC(C)C)C(=O)N2CCC[C@H]2C(=O)N[C@H](CC(C)C)C(=O)N[C@@H](Cc2ccccc2)C(=O)N2CCC[C@@H]2C1=O", "PAMPA (10^-6 cm/s)": "3.7"}
{"smiles": "CC(C)C[C@@H]1NC(=O)C[C@H](Cc2ccccc2)NC(=O)[C@H]2CCCN2C(=O)[C@H](Cc2ccccc2)NC(=O)[C@@H](CC(C)C)NC(=O)[C@@H]2CCCN2C(=O)[C@H](CC(C)C)NC1=O", "PAMPA (10^-6 cm/s)": "1.1"}
{"smiles": "CC(C)C[C@@H]1C(=O)N[C@@H](Cc2ccccc2)CC(=O)N2CCC[C@H]2C(=O)N(C)[C@@H](CC(C)C)C(=O)N[C@@H](Cc2ccccc2)C(=O)N2CCC[C@H]2C(=O)N[C@@H](C)C(=O)N1C", "PAMPA (10^-6 cm/s)": "2.2"}

Excerpt, the final 2 entries:

SMILES	PAMPA (10^-6 cm/s)
CC(C)C[C@@H]1NC(=O)C[C@H](Cc2ccccc2)NC(=O)[C@H]2CCCN2C(=O)[C@H](Cc2ccccc2)NC(=O)[C@@H](CC(C)C)NC(=O)[C@@H]2CCCN2C(=O)[C@H](CC(C)C)NC1=O	1.1
CC(C)C[C@@H]1C(=O)N[C@@H](Cc2ccccc2)CC(=O)N2CCC[C@H]2C(=O)N(C)[C@@H](CC(C)C)C(=O)N[C@@H](Cc2ccccc2)C(=O)N2CCC[C@H]2C(=O)N[C@@H](C)C(=O)N1C	2.2

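Lipid, pH, incubation time, direction and concentration are not recorded in the data file. Other peptides of the study may be missing here. Peptides that the database sets to -10, its floor, are left out.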